These are literature values, as cited in paper PMC6692079 (Journal of medicinal chemistry, 2018).

The conditions of this series: rats; cited from earlier work.

For “(3R)-7-hydroxy-N-[(1S)-1-[[(3R,4R)-4-(3-hydroxyphenyl)-3,4-dimethyl-1-piperidinyl]methyl]-2-methylbutyl]-1,2,3,4-tet- rahydro-3-isoquinoline-carboxamide [RTI-194]”, the “AUClast, fold higher in brain than in plasma” value was “approximately 10”.
